# Binding of CDR-mutated scFvs to a peptide of the spike HR2 region

Reference: Engelhart et al. 2022, doi:10.1038/s41597-022-01779-4. File: FLAb, binding data.

Antigen: PDVDLGDISGINAS, a 14-residue peptide of the SARS-CoV-2 spike HR2 region.

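The library (AAYL52) carries one to three amino acid substitutions per variant, with no insertions or deletions. AlphaSeq pools MATa yeast showing the antibodies with MATalpha yeast showing the peptide. After mating in shaken culture at 30 °C for 16 h, diploids were selected and their barcode pairs sequenced. A regression on co-assayed BCL2-family reference pairs converts the normalised counts of each replicate to an apparent Kd. There are three technical replicates.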

Each scFv is VH, the linker GGGGSGGGGSGGGGS, VL, as in the parent Ab-95, and differs from it in the CDRs of the light chain only.
VH: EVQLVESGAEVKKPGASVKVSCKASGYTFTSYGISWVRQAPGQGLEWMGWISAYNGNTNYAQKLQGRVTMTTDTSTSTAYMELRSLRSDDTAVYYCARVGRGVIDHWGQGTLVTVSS
VL: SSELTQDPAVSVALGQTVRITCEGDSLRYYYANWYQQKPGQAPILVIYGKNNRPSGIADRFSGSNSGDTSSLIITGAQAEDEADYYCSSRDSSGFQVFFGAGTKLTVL

Positions count from residue 1 of the parent VL; E23P puts P in place of E. The read-out is the apparent dissociation constant on a log10 scale (nM): the lower, the stronger. Replicates are averaged; those with no signal do not enter the mean. "nd" marks a missing value. The strain was present, yet no cells mated with the target were sequenced in any replicate, which points to weak or no binding. Empty control strains, which show no peptide, gave a signal in 28% of pairings with library AAYL52; the median was 3.91 and 95% of these signals were weaker than 2.90. No background was subtracted. For each scFv, signals with the empty controls are counted beside the result.

| changes | mean, log10 nM | replicates with signal | empty controls |
|---|---|---|---|
| E23P/K50H/V97D | 3.46 | 1/3 | 2/9 |
| S55P/F95S | 2.90 | 3/3 | 2/9 |
| N33Q/K50I/V97G | 5.15 | 1/3 | 0/9 |
| D25M/S88T/D91F | 2.44 | 2/3 | 0/9 |
| S89T/D91E/G94W | 2.66 | 3/3 | 1/9 |
| A32K/N51R/R53F | 3.91 | 3/3 | 6/9 |
| Y29Q/K50F/R53N | nd | 0/3 | 1/9 |
| E23I/L27Q/S88K | nd | 0/3 | 3/9 |
| Y30C/P54R/S55W | 3.49 | 2/3 | 3/9 |
| Y31T/N52W/P54R | nd | 0/3 | 1/9 |
| G24R/Y31R/G94I | 5.00 | 1/3 | 3/9 |
| D25G/N33G/D91I | nd | 0/3 | 1/9 |
| L27S/N51P/R90K | nd | 0/3 | 1/9 |
| Y30D/N33Y/V97R | 4.05 | 3/3 | 8/9 |
| P54K/S89T | 3.51 | 3/3 | 2/9 |
| D25P/N51V/F95D | 5.00 | 3/3 | 1/9 |
| S26V/Y29N/N52T | 2.21 | 3/3 | 2/9 |
| A32M/G94F/V97N | 2.90 | 2/3 | 3/9 |
| L27T/A32S/S55G | 3.22 | 2/3 | 4/9 |
| E23F/Y29Q/S88N | 2.44 | 3/3 | 1/9 |
| Y31R/N51L/S55F | 4.17 | 1/3 | 2/9 |
| Y31L/V97E | 4.18 | 1/3 | 1/9 |
| Y29S/Y31F/D91W | 2.84 | 3/3 | 3/9 |
| E23H/S26R/G94D | 2.08 | 3/3 | 2/9 |
| E23Y/S89R/G94S | 3.03 | 2/3 | 4/9 |
| S89E/G94I/V97N | 3.38 | 3/3 | 3/9 |
| N52P/F95T/F98L | 4.23 | 2/3 | 1/9 |
| S26Y/Y30P/F98R | 3.81 | 1/3 | 3/9 |
| D25N/L27W/A32P | 3.02 | 3/3 | 3/9 |
| R53C/S88T/D91N | 4.16 | 1/3 | 2/9 |
| G24K/A32I/S55L | 4.14 | 1/3 | 1/9 |
| L27E/S88N/G94I | 3.69 | 2/3 | 3/9 |
| D25H/Y30P | 2.58 | 3/3 | 1/9 |
| P54R/V97F | 2.51 | 3/3 | 2/9 |
| E23R/D25C/N52E | 3.13 | 3/3 | 3/9 |
| P54I/S88P/S89I | nd | 0/3 | 0/9 |
| Y29H/G94P/V97M | 3.95 | 2/3 | 4/9 |
| N51C/R53N/R90G | 3.85 | 2/3 | 0/9 |
| E23F/A32G/R53V | 2.59 | 3/3 | 2/9 |
| S26V/N52I/S93E | nd | 0/3 | 4/9 |
| K50P/F95M | 2.20 | 3/3 | 3/9 |
| P54Y/R90I/G94D | nd | 0/3 | 2/9 |
| S26P/S92H/G94K | nd | 0/3 | 2/9 |
| L27G/K50T/F98T | 3.95 | 3/3 | 2/9 |
| R28K/K50I | 2.40 | 2/3 | 0/9 |
| Y29V/Y30N/S89A | 0.50 | 3/3 | 5/9 |
| R28H/G94H | 3.34 | 2/3 | 5/9 |
| E23N/N51E/R53N | 3.21 | 1/3 | 0/9 |
| Y29N/P54K/D91K | 3.70 | 1/3 | 1/9 |
| Y30G/N33K/D91K | 2.99 | 3/3 | 4/9 |
| Y29S/S88V/G94Y | nd | 0/3 | 1/9 |
| S88A/S92G/Q96Y | nd | 0/3 | 1/9 |
| D25G/N51E/S93W | 4.77 | 1/3 | 2/9 |
| N33G/K50G/S89R | 3.28 | 3/3 | 4/9 |
| S88L/S89V/F98H | 2.20 | 3/3 | 4/9 |
| Y31C/V97E/F98P | 3.31 | 3/3 | 5/9 |
| L27Q/K50W/Q96A | nd | 0/3 | 2/9 |
| N51T/G94Q | 3.95 | 3/3 | 5/9 |
| E23Y/D25T/P54W | 3.68 | 2/3 | 0/9 |
| E23T/R28D/F95C | 2.78 | 3/3 | 4/9 |
| Y31D/P54G/S89C | 0.49 | 3/3 | 3/9 |
| L27R/Y30E/P54E | 0.93 | 3/3 | 6/9 |
| G24C/N51D/S93K | 3.47 | 2/3 | 3/9 |
| R28L/G49R | 4.43 | 1/3 | 4/9 |
| N33F/K50N | 2.82 | 3/3 | 4/9 |
| E23C/R90H/Q96P | 3.29 | 2/3 | 4/9 |
| S26Y/R28S/R53S | 3.15 | 3/3 | 1/9 |
| Y29A/R53A/S93E | 3.67 | 1/3 | 5/9 |
| S26N/Y31C/G49H | nd | 0/3 | 1/9 |
| R28P/Y31M/F95D | 2.43 | 2/3 | 1/9 |
| E23F/F98K | nd | 0/3 | 0/9 |
| A32P/P54C/F98N | nd | 0/3 | 0/9 |
| S89T/D91C/V97T | 2.63 | 3/3 | 5/9 |
| D25T/L27I/V97K | 3.75 | 2/3 | 2/9 |
| Y31T/K50N/S89T | 1.67 | 3/3 | 1/9 |
| R28D/N52L/S93N | 2.80 | 3/3 | 3/9 |
| R28M/Y30G/F95L | 1.98 | 3/3 | 2/9 |
| A32I/P54M/F95Y | 3.05 | 3/3 | 2/9 |
| Y31F/R90H/S93N | 2.28 | 3/3 | 3/9 |

A selection of 7 entries from above:

| changes | mean, log10 nM | replicates with signal | empty controls |
|---|---|---|---|
| L27E/S88N/G94I | 3.69 | 2/3 | 3/9 |
| R28P/Y31M/F95D | 2.43 | 2/3 | 1/9 |
| S26V/Y29N/N52T | 2.21 | 3/3 | 2/9 |
| L27T/A32S/S55G | 3.22 | 2/3 | 4/9 |
| G24R/Y31R/G94I | 5.00 | 1/3 | 3/9 |
| S26Y/Y30P/F98R | 3.81 | 1/3 | 3/9 |
| R53C/S88T/D91N | 4.16 | 1/3 | 2/9 |

Parent in this assay: reference entry 2.31, copy in this library 2.25.